This data set deals with HepG2. The experiment in a line: Cytotoxicity against human HepG2 cells assessed as reduction in cell viability at <=10 uM by MTT assay. Type of data set: cell-based.

Our source for the Activity values is ChEMBL document CHEMBL4765433, “From methylene bridged diindole to carbonyl linked benzimidazoleindole: Development of potent and metabolically stable PCSK9 modulators” (Eur J Med Chem, 2020).

SMILES strings stand for the structures. Only a part of the results on these compounds is given; other tests are left out.

With `Fc1ccc2nc(Cc3c[nH]c4c(F)cccc34)n(CCN3CCOCC3)c2c1`, the Activity result is on record as “Non-Toxic”.
